Test results from patent publication US20240309073A1 (SERUM INSTITUTE OF INDIA PRIVATE, published 2024).

Legend:
[1] = biological target: T1, Dengue virus serotype DV1 (Dengue virus serotype 1 (DV1), UniProt P17763 281-775); experiment: cell-based or functional assay
[2] = biological target: Dengue virus serotype DV3 (Dengue virus serotype 3 (DV3), UniProt Q6YMS4 281-773); experiment: cell-based or functional assay
[3] = biological target: T1, Dengue virus serotype DV1; experiment: cell-based or functional assay; remark: listed apart in the source
EDIII protein of DV1 [4] = biological target: T2, EDIII protein of DV1 (Dengue virus serotype 1 (DV1), UniProt P17763 576-675); experiment: indirect ELISA on immobilised EDIII protein of DV1; formulation stored at 40° C., 0 day
T2 construct: domain: EDIII; also called EDIII protein of DV1 antigen

EDIII protein of DV1 [5] = biological target: T2, EDIII protein of DV1; experiment: indirect ELISA on immobilised EDIII protein of DV1; formulation stored at 40° C., 14 days
EDIII protein of DV1 [6] = biological target: T2, EDIII protein of DV1; experiment: indirect ELISA on immobilised EDIII protein of DV1; formulation stored at 40° C., 21 days
EDIII protein of DV1 [7] = biological target: T2, EDIII protein of DV1; experiment: indirect ELISA on immobilised EDIII protein of DV1; formulation stored at 40° C., 28 days
EDIII protein of DV1 [8] = biological target: T2, EDIII protein of DV1; experiment: indirect ELISA on immobilised EDIII protein of DV1; formulation stored at 40° C., 35 days
EDIII protein of DV1 [9] = biological target: T2, EDIII protein of DV1; experiment: indirect ELISA on immobilised EDIII protein of DV1; formulation stored at 40° C., 42 days

B1: Dengue (VIS513) Monoclonal antibody (antibody, human IgG1, kappa, V domains shown)
VH: QVQLVQSGAEVKKPGASVKVSCKAGFNIKDVYMSWVRQAPEQGLEWMGRIDPENGDTKYDPKLQGRVTMTADTSTNTAYMELRSLRSDDTAVYYCARGWEGFAYWGQGTLVTVSS
VL: DIVMTQSPASLAVSLGERATISCRASENVDKYGNSFMHWYQQKPGQPPKLLIYRASELQWGVPDRFSGSGSGTDFTLTISSLQAEDVAVYYCQRSNEVPWTFGQGTKLEIKR
notes: also called Dengue Mab (VIS513); Dv-Mab
Q: How did the “EC50 (ng/ml) by PRNT assay; Batch 1, stored at 2-8° C., 0 day” value [1] turn out when B1 was run?
A: 47.1 ng/mL

Q: And the “EC50 (ng/ml) by PRNT assay; Batch 1, stored at 2-8° C., 3 months” value [1]?
A: 49.7 ng/mL

Q: And the “EC50 (ng/ml) by PRNT assay; Batch 1, stored at 2-8° C., 6 months” value [1]?
A: 23.9 ng/mL

Q: What about the “EC50 (ng/ml) by PRNT assay; Batch 1, stored at 2-8° C., 9 months” value [1] of the same binder?
A: 24.1 ng/mL

Q: And the “EC50 (ng/ml) by PRNT assay; Batch 2, stored at 2-8° C., 0 day” value [1]?
A: 21 ng/mL

Q: What about the “EC50 (ng/ml) by PRNT assay; Batch 2, stored at 2-8° C., 3 months” value [1] of the same binder?
A: 21 ng/mL

Q: And the “EC50 (ng/ml) by PRNT assay; Batch 2, stored at 2-8° C., 6 months” value [1]?
A: 16.1 ng/mL

Q: What about the “EC50 (ng/ml) by PRNT assay; Batch 2, stored at 2-8° C., 9 months” value [1] of the same binder?
A: 29.4 ng/mL

Q: And the “EC50 (ng/ml) by PRNT assay; Batch 2, stored at 2-8° C., 3 months” value [2]?
A: 24.1 ng/mL

Q: What about the “EC50 (ng/ml) by PRNT assay; Batch 1, stored at 25° C., 0 day” value [3] of the same binder?
A: 47.1 ng/mL

Q: And the “EC50 (ng/ml) by PRNT assay; Batch 1, stored at 25° C., 30 days” value [3]?
A: 29.8 ng/mL

Q: And the “EC50 (ng/ml) by PRNT assay; Batch 2, stored at 25° C., 0 day” value [3]?
A: 21 ng/mL

Q: And the “EC50 (ng/ml) by PRNT assay; Batch 2, stored at 25° C., 30 days” value [3]?
A: 28.3 ng/mL

Q: What about the “potency (%) by indirect ELISA (% Activity relative to reference standard)” value (EDIII protein of DV1 [4]) of the same binder?
A: 70.3%

Q: What about the “potency (%) by indirect ELISA (% Activity relative to reference standard)” value (EDIII protein of DV1 [5]) of the same binder?
A: 82.8%

Q: What about the “potency (%) by indirect ELISA (% Activity relative to reference standard)” value (EDIII protein of DV1 [6]) of the same binder?
A: 96.2%

Q: What about the “potency (%) by indirect ELISA (% Activity relative to reference standard)” value (EDIII protein of DV1 [7]) of the same binder?
A: 71.9%

Q: What about the “potency (%) by indirect ELISA (% Activity relative to reference standard)” value (EDIII protein of DV1 [8]) of the same binder?
A: 89.7%

Q: What about the “potency (%) by indirect ELISA (% Activity relative to reference standard)” value (EDIII protein of DV1 [9]) of the same binder?
A: 90.8%
